In article PMC3928712 (ACS chemical biology, 2013):

Tested on: influenza A/Puerto Rico/8/1934 (H1N1; PR8)
Test: microbe, parasite or virus in culture
Details: H1N1|PR8, MDCK, 24 h, read-out: antiviral activity EC50

CCOC(=O)C1=C[C@@H](OC(CC)CC)[C@H](NC(C)=O)[C@@H](N)C1 [oseltamivir]
EC50: 0.015 µM
